pIC50: −log10 of the molar value.
What was measured:
His-BIR3 (241-356, XIAP) = His-BIR3 (241-356, XIAP) (Homo sapiens, UniProt P98170); experiment: XIAP-BIR3/SMAC Homogeneous Time Resolved Fluorescence (HTRF) Assay; details: read-out: BIR3 HTRF IC50, fluorescein labeled SMAC peptide
Procedure: B. XIAP-BIR3/SMAC Homogeneous Time Resolved Fluorescence (HTRF) Assay
Assays were performed in black, flat-bottom, 384-well plates. The final assay volume was 50 μL prepared from additions of His-BIR3 (241-356, XIAP), fluorescein labeled SMAC peptide, and test compounds in assay buffer consisting of 20 mM Sodium Phosphate, 1 mM EDTA, 50 mM NaCl, 50 μg/ml BSA, and 0.05% Pluronic F68. The reaction was incubated at room temperature for 60 minutes, following which 10 μl of mouse anti-6×His-terbium labeled Fab (Medarex, Cis-bio) was added to the reaction (40 μl) for an additional 30 minute incubation. The HTRF signal, ratio of fluorescence intensities at emission wavelengths for fluorescein acceptor (520 nm) and terbium donor (615 nm), the 520/615 ratio, generated by the reaction was then measured on the Envision Plate Reader Inhibition data were calculated from the 520/615 ratio generated by the no protein control reactions for 100% inhibition and vehicle-only reactions for 0% inhibition. The final concentration of reagents in the assay was 1 nM N-His-BIR3(241-356, XIAP), 5 nM fluorescein labeled SMAC peptide, 0.25 nM anti-His-Tb-Fab, and 0.1% DMSO. Dose response curves were generated to determine the concentration required for inhibiting 50% of the HTRF signal (IC50). Compounds were dissolved at 3 mM in dimethylsulfoxide (DMSO) and evaluated at eleven serially diluted concentrations. […]

Chains of the proteins cited; added tags and fusions are not shown. Lines headed by an entry give the natural chain unless they say otherwise; changes in a name come on top. Residues count along the entry.
UniProt P98170, 241-356 limits assumed: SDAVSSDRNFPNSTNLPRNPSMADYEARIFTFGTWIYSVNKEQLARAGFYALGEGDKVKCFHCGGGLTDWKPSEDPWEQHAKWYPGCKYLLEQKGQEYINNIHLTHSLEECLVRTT
UniProt P98170, 125-356 C202A/C213G limits assumed: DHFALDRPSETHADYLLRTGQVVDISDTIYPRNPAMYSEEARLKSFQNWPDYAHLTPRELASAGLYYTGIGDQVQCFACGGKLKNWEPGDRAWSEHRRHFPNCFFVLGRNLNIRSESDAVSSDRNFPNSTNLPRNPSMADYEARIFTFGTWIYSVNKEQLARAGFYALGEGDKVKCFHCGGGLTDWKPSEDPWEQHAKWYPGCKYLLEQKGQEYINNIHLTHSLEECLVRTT

[1] = target: His-BIR2-3 (125-356, C202A/C213G, XIAP) (Homo sapiens, UniProt P98170, C202A/C213G); experiment: XIAP-BIR2-3 Dimeric SMAC Peptide Homogeneous Time Resolved Fluorescence (HTRF) Assay; details: read-out: BIR2-3 HTRF IC50, fluorescein labeled dimeric SMAC peptide
Procedure: D. XIAP-BIR2-3 Dimeric SMAC Peptide Homogeneous Time Resolved Fluorescence (HTRF) Assay
Assays were performed in black, flat-bottom, 384-well plates. The final assay volume was 50 μL prepared from additions of His-BIR2-3 (125-356, C202A/C213G, XIAP), fluorescein labeled dimeric SMAC peptide, and test compounds in assay buffer consisting of 20 mM Sodium Phosphate, 1 mM EDTA, 50 mM NaCl, 50 μg/ml BSA, and 0.05% Pluronic F68. The reaction was incubated at room temperature for 60 minutes, following which 101.1.1 of mouse anti-6×His-Tb IgG (Medarex, Cis-bio) was added to the reaction (40 μl) for an additional 30 minute incubation. The HTRF signal, ratio of fluorescence intensities at emission wavelengths for fluorescein acceptor (520 nm) and terbium donor (615 nm), the 520/615 ratio, generated by the reaction was then measured on the Envision Plate Reader. Inhibition data were calculated from the 520/615 ratio generated by the no protein control reactions for 100% inhibition and vehicle-only reactions for 0% inhibition. The final concentration of reagents in the assay was 0.5 nM N-His-BIR2-3(125-356, C202A/C213G, XIAP), 20 nM fluorescein labeled dimeric SMAC peptide, 0.25 nM anti-His-Tb-Fab, and 0.1% DMSO. […] Compounds were dissolved at 3 mM in dimethylsulfoxide (DMSO) and evaluated at eleven serially diluted concentrations. […]

Compound | pIC50 (His-BIR3 (241-356, XIAP)) | pIC50 [1]
CN[C@@H](C)C(=O)N[C@H](C(=O)N1C[C@H]2C/C=C/COc3ccc(cc3)C[C@@H](C(=O)NS(=O)(=O)c3ccccc3)NC(=O)[C@H](Cc3ccc4ccccc4c3)NC(=O)[C@@H]3C[C@@H](CN3C(=O)[C@@H](NC(=O)[C@H](C)NC)C(C)(C)C)n3cc(nn3)COc3ccc(cc3)C[C@@H](C(=O)O)NC(=O)[C@H](Cc3ccc4ccccc4c3)NC(=O)[C@@H]1C2)C(C)(C)C | 9.52 | 9.70
CN[C@@H](C)C(=O)N[C@H](C(=O)N1C[C@@H]2C[C@H]1C(=O)N[C@@H](Cc1ccc3ccccc3c1)C(=O)N[C@H](C(=O)O)Cc1ccc(cc1)OC/C=C/CO[C@H]1C[C@@H](C(=O)N[C@@H](Cc3ccc4ccccc4c3)C(=O)N[C@H](C(=O)NS(=O)(=O)C3CC3)Cc3ccc(cc3)OCc3cn2nn3)N(C(=O)[C@@H](NC(=O)[C@H](C)NC)C(C)(C)C)C1)C(C)(C)C | 8.44 | 9.15
